Assay results reported in patent US9416127B2, “Triazole carboxamides and uses thereof” (Hoffmann-La Roche Inc., priority 2012, dated 2016).

By UniProt entry, the sequences of proteins in these tests, tags left out.
UniProt Q923Y8, whole entry: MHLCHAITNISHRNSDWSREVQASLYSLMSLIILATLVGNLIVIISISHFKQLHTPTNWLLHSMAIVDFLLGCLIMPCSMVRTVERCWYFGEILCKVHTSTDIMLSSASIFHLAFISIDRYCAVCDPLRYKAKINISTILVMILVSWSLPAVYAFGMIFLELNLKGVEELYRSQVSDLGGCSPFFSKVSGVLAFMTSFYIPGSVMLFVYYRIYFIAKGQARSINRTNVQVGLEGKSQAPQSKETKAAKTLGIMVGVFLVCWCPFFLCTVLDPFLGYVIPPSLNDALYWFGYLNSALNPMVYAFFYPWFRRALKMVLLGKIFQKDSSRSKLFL
UniProt Q923Y9, whole entry: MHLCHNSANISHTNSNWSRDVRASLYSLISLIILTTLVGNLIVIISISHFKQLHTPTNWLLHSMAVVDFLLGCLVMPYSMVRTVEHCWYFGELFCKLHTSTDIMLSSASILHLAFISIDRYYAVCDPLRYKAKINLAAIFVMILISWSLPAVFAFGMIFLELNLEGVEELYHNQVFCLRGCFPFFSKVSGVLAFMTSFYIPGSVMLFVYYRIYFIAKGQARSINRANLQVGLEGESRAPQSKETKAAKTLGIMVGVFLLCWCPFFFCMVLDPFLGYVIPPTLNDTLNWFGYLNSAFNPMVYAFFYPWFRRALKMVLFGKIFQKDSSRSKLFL

Tests used:
[1] = target: mouse TAAR1 (Mus musculus (Mouse), UniProt Q923Y8); assay: Radioligand binding assay on mouse TAAR1; details: read-out: Ki (μM) mouse; mouse TAAR1, HEK-293 membranes; first value of mouse/rat cell; tested form: HCl
[2] = target: rat TAAR1 (Rattus norvegicus (Rat), UniProt Q923Y9); assay: Radioligand binding assay on rat TAAR1; details: read-out: Ki (μM) rat; rat TAAR1, HEK-293 membranes; second value of mouse/rat cell; tested form: HCl

Row | SMILES | Ki [1] [µM] | Ki [2] [µM]
1 | O=C(Nc1ccc([C@H]2CNCCO2)cc1)c1cn(-c2ccc(OC(F)F)cc2)nn1 | 0.0015 | 0.0268
2 | O=C(Nc1ccc([C@H]2CNCCO2)cc1)c1cn(-c2ccc(F)cc2)nn1 | 0.0023 | 0.0342
3 | O=C(Nc1ccc([C@H]2CNCCO2)cc1)c1cn(-c2cccc(F)c2)nn1 | 0.0029 | 0.0211
4 | O=C(Nc1ccc([C@H]2CNCCO2)cc1)c1cn(-c2ccc(OC(F)(F)F)cc2)nn1 | 0.0004 | 0.0032
